From patent US8440592B2, “Use of abscisic acid combinations for thinning” (Valent BioSciences Corporation, priority 2007, dated 2013)

Tested on: grape and apple
Test: Leaf drop and phytotoxic burns in the grape and apple thinning examples
Assay type: in vivo
Details: ABA added to standard thinning treatments (GA3, BA)

## (S)-5-(1-hydroxy-2,6,6,-trimethyl-4-oxo-2-cyclohexen-1-yl)-3-methyl-(2Z,4E)-pentadienoic acid [ABA]
  Leaf drop or phytotoxic burns: without inducing leaf drop or causing phytotoxic burns
